Results: patent US12016922B2, “Stabilized aqueous antibody compositions” (Arecor Limited, priority 2012, dated 2024)

How the values were obtained:
[1] = system: rituximab; assay: Aggregation of rituximab formulations on storage, % HMWS by size exclusion chromatography; format: physicochemical; settings: rituximab 140 mg/ml, trehalose 200 mM, pH 6.5, 40° C., additive 1 mg/ml
[2] = system: Certolizumab pegol; assay: Aggregation of certolizumab pegol formulations on storage, % HMWS by size exclusion chromatography; format: physicochemical; settings: Certolizumab pegol 100 mg/ml, 40° C.

% HMWS 26 weeks [1] [%]	% HMWS 8 weeks ([2]; histidine 10 mM pH 6.0, 1,2-propanediol 200 mM, additive 1 mg/ml) [%]	% HMWS 8 weeks ([2]; histidine 10 mM pH 6.0, NaCl 150 mM, additive 1 mg/ml) [%]	% HMWS 8 weeks ([2]; histidine 10 mM pH 6.0, NaCl 150 mM, additive 3 mg/ml) [%]	SMILES
1.51	–	–	–	NCCNCCN [Diethylenetriamine]
–	1.02	1.51	1.02	NCCNCCNCCN [Triethylenetetramine]
